Reference: US8252752B2 (priority 2000, dated 2012)

Sequences of proteins named here, by UniProt entry; tags and fusion partners are left off.
UniProt Q01959, whole entry: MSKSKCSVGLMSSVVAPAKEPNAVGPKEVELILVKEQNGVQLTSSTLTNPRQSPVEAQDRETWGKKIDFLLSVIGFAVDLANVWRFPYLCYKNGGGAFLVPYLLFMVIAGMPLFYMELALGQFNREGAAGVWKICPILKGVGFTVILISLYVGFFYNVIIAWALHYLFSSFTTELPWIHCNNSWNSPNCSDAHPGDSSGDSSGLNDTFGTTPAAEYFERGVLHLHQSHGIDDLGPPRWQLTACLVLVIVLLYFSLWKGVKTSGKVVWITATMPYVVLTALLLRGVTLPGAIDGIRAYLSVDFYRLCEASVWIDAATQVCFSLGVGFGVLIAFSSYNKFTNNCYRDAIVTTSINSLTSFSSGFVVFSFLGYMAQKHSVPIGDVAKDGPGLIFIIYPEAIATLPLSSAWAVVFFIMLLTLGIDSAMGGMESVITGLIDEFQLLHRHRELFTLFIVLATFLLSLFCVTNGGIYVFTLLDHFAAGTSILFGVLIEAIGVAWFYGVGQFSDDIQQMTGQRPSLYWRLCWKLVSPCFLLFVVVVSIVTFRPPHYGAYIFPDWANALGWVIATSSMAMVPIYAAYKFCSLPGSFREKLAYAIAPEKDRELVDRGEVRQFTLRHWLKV

Target: human DAT (Homo sapiens, UniProt Q01959)
Conditions: hDAT-transfected cells, 5 hrs. incubation

Substance: Dopamine gluconamine [Compound #2]
- competition of 3H-dopamine uptake: Competition of ^3H-dopamine uptake was observed
